# Counter-ions that a name gives are not always drawn.
# By UniProt entry, the sequences of proteins in these tests, tags left out.
# UniProt Q923Y9, whole entry: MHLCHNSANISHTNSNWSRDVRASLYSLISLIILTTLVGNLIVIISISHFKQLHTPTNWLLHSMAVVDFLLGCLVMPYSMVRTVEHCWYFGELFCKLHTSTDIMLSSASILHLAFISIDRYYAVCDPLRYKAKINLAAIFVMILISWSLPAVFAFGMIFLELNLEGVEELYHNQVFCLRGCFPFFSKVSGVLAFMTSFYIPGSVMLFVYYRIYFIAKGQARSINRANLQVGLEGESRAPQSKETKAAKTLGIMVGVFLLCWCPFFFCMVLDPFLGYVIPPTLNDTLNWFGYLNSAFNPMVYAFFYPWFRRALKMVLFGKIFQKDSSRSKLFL
# UniProt Q923Y8, whole entry: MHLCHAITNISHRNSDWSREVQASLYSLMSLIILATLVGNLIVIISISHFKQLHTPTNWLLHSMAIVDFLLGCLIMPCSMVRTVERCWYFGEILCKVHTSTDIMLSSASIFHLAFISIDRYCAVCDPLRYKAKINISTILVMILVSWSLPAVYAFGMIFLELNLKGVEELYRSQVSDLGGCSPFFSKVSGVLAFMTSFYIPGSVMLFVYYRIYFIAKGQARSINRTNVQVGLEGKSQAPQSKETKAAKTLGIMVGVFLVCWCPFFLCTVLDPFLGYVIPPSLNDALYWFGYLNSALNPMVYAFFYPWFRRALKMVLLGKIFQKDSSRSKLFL
# What was measured:
# rat TAAR1 = rat TAAR1 (Rattus norvegicus (Rat), UniProt Q923Y9); assay: Radioligand binding assay on rat TAAR1; conditions: rat TAAR1, membranes of HEK-293 cells, second value of the cell pair mouse/rat
# Method: (§1) For the construction of expression plasmids the coding sequences of human, rat and mouse TAAR 1 were amplified from genomic DNA essentially as described by Lindemann et al.. The Expand High Fidelity PCR System (Roche Diagnostics) was used with 1.5 mM Mg^2+ and purified PCR products were cloned into pCR2.1-TOPO cloning vector (Invitrogen) following the instructions of the manufacturer. PCR products were subcloned into the pIRESneo2 vector (BD Clontech, Palo Alto, Calif.), and expression vectors were sequence verified before introduction in cell lines.
# (§2) HEK293 cells (ATCC # CRL-1573) were cultured essentially as described by Lindemann et al. (2005). […]
# (§3) HEK-293 cells stably expressing rat TAAR1 were maintained at 37° C. and 5% CO2 in DMEM high glucose medium, containing fetal calf serum (10%, heat inactivated for 30 min at 56° C.), penicillin/streptomycin (1%), and 375 μg/ml geneticin (Gibco). […] With each new membrane batch the dissociation constant (Kd) was determined via a saturation curve. […] After addition of 45 μl of Microscint 40 (PerkinElmer) the Unifilter-96 plate was sealed and after 1 hr the ratioactivity counted using a TopCount Microplate Scintillation Counter (Packard Instrument Company).
# mouse TAAR1 = mouse TAAR1 (Mus musculus (Mouse), UniProt Q923Y8); assay: Radioligand binding assay on mouse TAAR1; conditions: mouse TAAR1, membranes of HEK-293 cells, first value of the cell pair mouse/rat
# Method: as §1, §2
# as §3, with “expressing mouse” for “expressing rat”
structure (smiles),measurement,setting,value
"Fc1ccc(-c2cc(-c3ccc([C@H]4CNCCO4)cc3)n[nH]2)c(F)c1 [Example 13, (S)-2-(4-(5-(2,4-Difluorophenyl)-1H-pyrazol-3-yl)phenyl)morpholine hydrochloride]",Ki,rat TAAR1,0.0305 µM
"Fc1ccc(-c2cc(-c3ccc([C@@H]4CNCCO4)cc3)n[nH]2)c(F)c1 [Example 14, (R)-2-(4-(5-(2,4-Difluorophenyl)-1H-pyrazol-3-yl)phenyl)morpholine hydrochloride]",Ki,rat TAAR1,0.183 µM
"FC(F)(F)c1cc(-c2nc3ccc([C@@H]4CNCCO4)cc3o2)ccn1 [Example 54, (R)-6-(Morpholin-2-yl)-2-(2-(trifluoromethyl)pyridin-4-yl)benzo[d]oxazole hydrochloride]",Ki,mouse TAAR1,0.203 µM
"FC(F)(F)c1cc(-c2nc3ccc([C@H]4CNCCO4)cc3o2)ccn1 [Example 55, (S)-6-(Morpholin-2-yl)-2-(2-(trifluoromethyl)pyridin-4-yl)benzo[d]oxazole hydrochloride]",Ki,mouse TAAR1,0.0644 µM

# — patent publication US9181230B2, “Morpholine compounds and uses thereof” (Hoffmann-La Roche Inc., priority 2013, dated 2015)
